This is an account of results in ChEMBL document CHEMBL6127110, “Pyrazolo-Pyrimidinones with Improved Solubility and Selective Inhibition of Adenylyl Cyclase Type 1 Activity for Treatment of Inflammatory Pain” (J Med Chem, 2024).

The nature of the series: in vitro. The following applies: dog, MDCK.
On to `CCc1cc(=O)[nH]c(-n2nc(C)cc2NCc2cccc(C(F)(F)F)c2)n1`, for which the recovery is 47%. In the case of `CCc1cc(=O)[nH]c(-n2nc(C)cc2N[C@H](C)c2cccc(C(F)(F)F)c2)n1` it was 47%; in that of `CCc1cc(=O)[nH]c(-n2nc(C)cc2N[C@H](C)C2CCCC2)n1`, 35%.
